Activity calls are given as the source filed them.
How the values were obtained:
[1] = target: T1, Prostaglandin E2 receptor EP4 subtype (Homo sapiens, UniProt P35408); test: Inhibition of human EP4 transfected in human HEK293 cells co transfected with CRE-luciferase assessed as reduction in PGE2-induced luciferase expression incubated for 24 hrs by luciferase reporter gene Assay; format: functional, cell-based
RAW264.7 [2] = test: Inhibition of GM-CSF/IL-4 and PGE2-induced COX2 mRNA expression in mouse RAW264.7 cells incubated for 24 hrs by qPCR analysis; format: functional, cell-based
Homo sapiens [3] = species on record: Homo sapiens; test: Selectivity index, ratio IC50 for antagonist activity at human EP3 receptor expressed in CHO cells coexpressing G16-alpha assessed as intracellular calcium flux to IC50 for antagonist activity at human EP4 receptor expressed in CHO cells coexpressing G16-alpha assessed as intracellular calcium flu; format: cell-based
Mus musculus [4] = test: In vivo induction of infiltration of CD8+ T-cells in mouse CT26 cells xenografted in BALB/c mouse at 150 mg/kg, po administerd daily for 14 days by immunofluorescence based inverted microscopic analysis; format: functional, organism-based
[5] = target: T1, Prostaglandin E2 receptor EP4 subtype; test: Inhibition of human EP4 transfected in human HEK293 cells assessed as reduction in PGE2-induced cAMP level incubated for 15 mins followed by PGE2 stimulation and measured every 2 mins for 30 mins by GloSensor cAMP Assay; format: functional, cell-based
RAW264.7 [6] = test: Inhibition of GM-CSF/IL-4 and PGE2-induced IL-10 mRNA expression in mouse RAW264.7 cells incubated for 24 hrs by qPCR analysis; format: functional, cell-based
[7] = target: T1, Prostaglandin E2 receptor EP4 subtype; test: Inhibition of human EP4 transfected in CHO cells assessed as reduction in PGE2-induced ERK phosphorylation incubated for 20 mins followed by PGE2 stimulation and measured after 10 mins by Western blot analysis; format: cell-based
Homo sapiens [8] = species on record: Homo sapiens; test: Selectivity index, ratio IC50 for antagonist activity at human EP2 receptor expressed in CHO cells coexpressing G16-alpha assessed as intracellular calcium flux to IC50 for antagonist activity at human EP4 receptor expressed in CHO cells coexpressing G16-alpha assessed as intracellular calcium flu; format: cell-based
RAW264.7 [9] = test: Inhibition of GM-CSF/IL-4 and PGE2-induced IL-4Ralpha mRNA expression in mouse RAW264.7 cells incubated for 24 hrs by qPCR analysis; format: functional, cell-based
RAW264.7 [10] = test: Inhibition of GM-CSF/IL-4 and PGE2-induced IL-1beta mRNA expression in mouse RAW264.7 cells incubated for 24 hrs by qPCR analysis; format: functional, cell-based
[11] = target: T1, Prostaglandin E2 receptor EP4 subtype; test: Inhibition of human EP4 transfected in human HEK293 cells co transfected with SmBit-beta-arrestin. assessed as reduction in PGE2 induced-beta-arrestin recruitment by NanoBiT beta-arrestin recruitment assay; format: cell-based
RAW264.7 [12] = test: Inhibition of GM-CSF/IL-4 and PGE2-induced CXCL1 mRNA expression in mouse RAW264.7 cells incubated for 24 hrs by qPCR analysis; format: functional, cell-based
RAW264.7 [13] = test: Inhibition of GM-CSF/IL-4 and PGE2-induced ARG1 mRNA expression in mouse RAW264.7 cells incubated for 24 hrs by qPCR analysis; format: functional, cell-based
RAW264.7 [14] = test: Inhibition of GM-CSF/IL-4 and PGE2-induced iNOS mRNA expression in mouse RAW264.7 cells incubated for 24 hrs by qPCR analysis; format: functional, cell-based
Homo sapiens [15] = species on record: Homo sapiens; test: Selectivity index, ratio IC50 for antagonist activity at human EP1 receptor expressed in CHO cells coexpressing G16-alpha assessed as intracellular calcium flux to IC50 for antagonist activity at human EP4 receptor expressed in CHO cells coexpressing G16-alpha assessed as intracellular calcium flu; format: cell-based
Mus musculus [16] = test: In vivo induction of infiltration of CD45+ CD8+ T-cells in mouse CT26 cells xenografted in BALB/c mouse at 150 mg/kg, po administerd daily for 14 days by flow cytometry analysis; format: functional, organism-based
RAW264.7 [17] = test: Inhibition of GM-CSF/IL-4 and PGE2-induced IL-6 mRNA expression in mouse RAW264.7 cells incubated for 24 hrs by qPCR analysis; format: functional, cell-based

Chains of the proteins cited; added tags and fusions are not shown. Lines headed by an entry give the natural chain unless they say otherwise; changes in a name come on top.
UniProt P35408: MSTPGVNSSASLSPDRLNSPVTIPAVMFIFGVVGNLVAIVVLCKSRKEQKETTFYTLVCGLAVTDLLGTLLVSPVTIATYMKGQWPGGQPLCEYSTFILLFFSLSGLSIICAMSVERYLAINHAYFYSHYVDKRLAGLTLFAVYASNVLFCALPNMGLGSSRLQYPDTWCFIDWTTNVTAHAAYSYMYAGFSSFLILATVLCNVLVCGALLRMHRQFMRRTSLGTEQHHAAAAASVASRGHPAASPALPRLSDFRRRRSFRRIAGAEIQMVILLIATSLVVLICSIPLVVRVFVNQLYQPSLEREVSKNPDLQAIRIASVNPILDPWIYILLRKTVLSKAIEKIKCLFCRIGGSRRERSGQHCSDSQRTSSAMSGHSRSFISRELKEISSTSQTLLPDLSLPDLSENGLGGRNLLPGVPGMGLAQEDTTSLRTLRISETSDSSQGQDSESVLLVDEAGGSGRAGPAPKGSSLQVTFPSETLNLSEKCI

C/C=C/c1nnn(Cc2ccc(C(F)(F)F)cc2)c1C(=O)N[C@@H](C)c1ccc(C(=O)O)cc1
active: inhibition [1] Dose-dependent effect | inhibition (RAW264.7 [2]) Dose-dependent effect | Activity (Mus musculus [4]) | inhibition [5] Dose-dependent effect | inhibition (RAW264.7 [6]) Dose-dependent effect | inhibition [7] Dose-dependent effect | inhibition (RAW264.7 [9]) Dose-dependent effect | inhibition (RAW264.7 [10]) Dose-dependent effect | inhibition [11] Dose-dependent effect | inhibition (RAW264.7 [12]) Dose-dependent effect | inhibition (RAW264.7 [13]) Dose-dependent effect | inhibition (RAW264.7 [14]) Dose-dependent effect | Activity (Mus musculus [16]) | inhibition (RAW264.7 [17]) Dose-dependent effect
> 1000: Ratio IC50 (Homo sapiens [3]) | Ratio IC50 (Homo sapiens [8]) | Ratio IC50 (Homo sapiens [15])
